Reference: PubChem BioAssay AID923 (National Center for Advancing Translational Sciences (NCATS), 2007)
The entries are a selection whose mix differs from that of the whole data set. The source made the active and inactive calls. Calls come from the whole dose curve; as a rule, active = well fitted activation curve with a large enough effect; inconclusive = small, poorly fitted or top-dose-only effect; inactive = flat fitted curve, though single readings scatter.

Assay: qHTS Assay for Allosteric/Competitive Inhibitors of Caspase-1: Spectroscopic Profiling in AFC Spectral Region; note: 0% is about no effect
Details: compound fluorescence, AFC spectral region (405/520 nm); at 57.5 µM (top of the series) unless noted

Question: Which fluorescence increase does the source give for `COc1ccc(NC2CCN(CCc3ccccc3)CC2)c(OC)c1` here?
Answer: inactive: 0.821%

Question: For `O=C(OC1CN2CCC1CC2)C1c2ccccc2Oc2ccccc21` (stereo unspecified), which fluorescence increase is on record?
Answer: inactive: 2.19%

Question: For `NC1CCCCC1.NP(=O)(O)N(CCCl)CCCl`, which fluorescence increase is on record?
Answer: inactive: -0.317% [at 11.5 µM]

Question: With `CCOP(=O)(Cl)Cl` as the compound, how does the fluorescence increase read?
Answer: inactive: -0.389%

Question: For `N#CC1(Nc2ccccc2)CCN(CCc2ccccc2)CC1`, which fluorescence increase is on record?
Answer: inactive: -0.555%

Question: With `ClCCOP(OCCCl)OCCCl` as the compound, how does the fluorescence increase read?
Answer: inactive: 5.21%

Question: For `N/C(=N\O)c1c(N)no[n+]1[O-]`, which fluorescence increase is on record?
Answer: inactive: 1.02%

Question: With `CCC(CO)(C(=O)OC1CN2CCC1CC2)c1ccccc1` (stereo unspecified) as the compound, how does the fluorescence increase read?
Answer: inactive: 0.52%

Question: With `O=C(O)C1(Nc2ccccc2)CCN(Cc2ccccc2)CC1` as the compound, how does the fluorescence increase read?
Answer: inactive: 0.806% [at 11.5 µM]

Question: Which fluorescence increase does the source give for `CCOc1ncccc1C(=O)NCC1(N2CCOCC2)CCCCC1` here?
Answer: inactive: -0.0337%

Question: Which fluorescence increase does the source give for `Fc1ccccc1NC1CCN(Cc2ccccc2)CC1` here?
Answer: inactive: 0.169%
